Where two headings read alike, the source gives them in different places.
Key:
[1] = tested on: mice; conditions: in vivo; for Cumulative Mortality Total: both
[2] = tested on: Lewis Lung Carcinoma; conditions: mouse, in vivo; for Highest non-toxic dosage: ip
[3] = lyophilized, −23° C.
[4] = tested on: 16/C Mammary Tumor
[5] = female, CD-1 (Crl: CD-1(1CR) BR), mouse
[6] = male, CD-1 (Crl: CD-1(1CR) BR), mouse

Compound: O=P(O)(NCCCl)NCCCl [IPM, N,N′-di(2-chloroethyl)phosphorodiamidic acid]
- Cumulative Mortality Total ([1]; CD-1 (Crl: CD-1(1CR) BR), mouse): 5/10
- Cumulative Mortality Total ([1]; Crl: CD-1(1CR) BR, mouse): 5 of 10
- Mortality Study Day 9 F [1, 5]: 0
- Mortality Study Day 10 F [1, 5]: 0
- Mortality Study Day 11 F [1, 5]: 0
- Mortality Study Day 1 to 5 F ([1]; female, CD-1, mouse): 0
- Mortality Study Day 6 F ([1]; female, CD-1, mouse): 1
- Mortality Study Day 7 F ([1]; female, CD-1, mouse): 1
- Mortality Study Day 12 to 14 F ([1]; female, CD-1, mouse): 0
- Mortality Study Day 8 F ([1]; female, Crl: CD-1(1CR) BR, mouse): 2
- Mortality Study Day 1 to 5 M [1, 6]: 0
- Mortality Study Day 10 M [1, 6]: 0
- Mortality Study Day 11 M [1, 6]: 1
- Mortality Study Day 12 to 14 M [1, 6]: 0
- Cumulative Mortality M ([1]; male, CD-1, mouse): 1/5
- Mortality Study Day 6 M ([1]; male, CD-1, mouse): 0
- Mortality Study Day 7 M ([1]; male, CD-1, mouse): 0
- Mortality Study Day 8 M ([1]; male, Crl: CD-1(1CR) BR, mouse): 0
- Mortality Study Day 9 M ([1]; male, Crl: CD-1(1CR) BR, mouse): 0
- sex difference in toxicity ([1]; mouse, iv): greater toxicity in females than males
- Log kill total [2]: >2.1 log10
- Highest non-toxic dosage [2]: 100 mg kg^−1/dose
- purity on storage, 0 months [3]: 97%
- purity on storage, 1 months [3]: 88%
- purity on storage, 3 months [3]: 70%

Compound: O=P1(NCCCl)OCCCN1CCCl (stereo not shown) [Ifos, Ifosfamide]
- Log kill total [2]: >4.5 log10
- Highest non-toxic dosage [2]: 300 mg kg^−1/dose

Compound: O=P1(N(CCCl)CCCl)NCCCO1 (stereo not shown) [CPA, cyclophosphamide]
- Days Delay (T − C) ([4]; 30 mg/kg IP Q 1dx 4 day 7): 0.4 days
- Days Delay (T − C) ([4]; 50 mg/kg IP Q 1dx 4 day 7): 4.0 days
- Log kill total [2]: >6.8 log10
- Highest non-toxic dosage [2]: 200 mg kg^−1/dose
